What was measured:
[1] = biological target: cloned rat mGlu1 receptor (Rattus norvegicus, UniProt P23385); experiment: Signal transduction at the cloned rat mGlu1 receptor in CHO cells (glutamate-induced Ca2+ rise, FLIPR); type: cell-based; details: inhibition of glutamate-induced intracellular Ca2+ rise, CHO cells expressing mGlu1 receptor; compounds with pIC50 between 7 and 8
[2] = biological target: T1, rat mGlu1a receptor (Rattus norvegicus, UniProt P23385); experiment: [3H]quisqualate binding to rat mGlu1a receptor CHO-dhfr− membranes (saturation, inhibition)
[3] = biological target: T1, rat mGlu1a receptor; experiment: [3H]Compound A binding to rat mGlu1a receptor CHO-dhfr− membranes (saturation, kinetics, inhibition)
[4] = inhibition of [3H]quisqualate binding, mean ± SD of 2 experiments

Chains of the proteins cited; added tags and fusions are not shown. Residues count along the entry.
UniProt P23385, 19-1199 limits assumed: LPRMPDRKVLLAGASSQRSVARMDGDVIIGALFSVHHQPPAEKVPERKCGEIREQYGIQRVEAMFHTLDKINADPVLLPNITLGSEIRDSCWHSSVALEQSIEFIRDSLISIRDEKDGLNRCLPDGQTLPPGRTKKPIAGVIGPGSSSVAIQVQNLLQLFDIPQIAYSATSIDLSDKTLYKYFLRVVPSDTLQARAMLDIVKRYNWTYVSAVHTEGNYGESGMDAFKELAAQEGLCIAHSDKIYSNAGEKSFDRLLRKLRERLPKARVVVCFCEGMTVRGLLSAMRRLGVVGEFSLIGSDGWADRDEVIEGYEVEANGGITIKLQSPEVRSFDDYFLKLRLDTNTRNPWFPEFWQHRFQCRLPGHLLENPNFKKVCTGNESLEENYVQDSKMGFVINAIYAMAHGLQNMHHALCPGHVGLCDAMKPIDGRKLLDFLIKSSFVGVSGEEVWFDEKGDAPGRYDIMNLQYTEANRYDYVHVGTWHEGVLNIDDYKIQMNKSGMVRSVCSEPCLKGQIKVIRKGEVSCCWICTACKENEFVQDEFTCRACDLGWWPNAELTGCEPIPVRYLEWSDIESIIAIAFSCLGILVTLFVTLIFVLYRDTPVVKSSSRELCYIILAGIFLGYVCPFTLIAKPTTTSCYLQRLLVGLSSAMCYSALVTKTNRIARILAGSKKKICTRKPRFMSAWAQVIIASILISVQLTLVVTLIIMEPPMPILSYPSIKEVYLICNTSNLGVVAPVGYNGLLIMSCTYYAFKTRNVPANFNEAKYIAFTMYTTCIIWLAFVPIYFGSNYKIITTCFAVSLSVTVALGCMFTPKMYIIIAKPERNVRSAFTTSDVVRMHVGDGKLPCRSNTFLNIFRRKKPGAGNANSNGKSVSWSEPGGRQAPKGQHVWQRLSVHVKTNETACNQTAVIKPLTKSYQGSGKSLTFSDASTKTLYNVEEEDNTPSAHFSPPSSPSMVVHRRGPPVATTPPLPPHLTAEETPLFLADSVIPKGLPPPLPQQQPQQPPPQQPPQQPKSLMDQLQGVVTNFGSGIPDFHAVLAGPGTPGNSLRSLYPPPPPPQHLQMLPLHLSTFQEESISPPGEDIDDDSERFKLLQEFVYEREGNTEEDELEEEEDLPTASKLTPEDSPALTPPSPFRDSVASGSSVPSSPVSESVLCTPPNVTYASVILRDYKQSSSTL

| SMILES | pIC50 [1] | other results |
| --- | --- | --- |
| CCc1cc2cc(C(=O)CC3CC4CCC3C4)ccc2[nH]c1=O (stereo not drawn) | 7.00 |  |
| CCc1cc2cc(C(=O)[C@H]3CC[C@H](C)CC3)ccc2[nH]c1=O | 7.18 |  |
| COC1CCC(C)(CC(=O)c2ccc3nc4c(cc3c2)CCCO4)CC1 (single isomer, unassigned) [487] | 7.63 |  |
| CCc1cc2cc(C(=O)[C@@H]3CCC[C@@H](OC)C3)ccc2[nH]c1=O | 7.13 |  |
| O=C(Cc1ccsc1)c1ccc2nc3c(cc2c1)CCCS3 | 7.57 |  |
| COC1CCC(C)(CC(=O)c2ccc3nc4c(cc3c2)CCCO4)CC1 (single isomer, unassigned) [486] | 7.73 |  |
| COC1CCC(C(=O)c2ccc3[nH]c(=O)c(C)cc3c2)CC1 (stereo not drawn) | 7.28 |  |
| CCCc1cc2cc(C(=O)C3CCC(OC)CC3)ccc2[nH]c1=O (stereo not drawn) | 7.49 |  |
| CC1(CC(=O)c2ccc3nc4c(cc3c2)CCS4)CC2CCC1C2 (single isomer, unassigned) | 7.16 |  |
| N[C@@H](Cn1oc(=O)[nH]c1=O)C(=O)O [quisqualate, reference compound] |  | number of binding sites labelled as % of the number labelled by [3H]Compound A ([2]; tested as the radiolabelled form): 60% |
| CCc1cc2cc(C(=O)C3(F)CCC(OC)CC3)ccc2[nH]c1=O (stereo not drawn) | 7.90 |  |
| CCc1cc2cc(C(=O)Cc3ccsc3)ccc2nc1C | 7.63 |  |
| CCc1cc2cc(C(=O)[C@H]3CC[C@@H](OC)CC3)ccc2nc1COC(C)=O (relative stereo) | 7.05 |  |
| CCc1c(CC)c2cc(C(=O)C3CCC(OC)CC3)ccc2[nH]c1=O (stereo not drawn) | 7.81 |  |
| COC1CCC(F)(CC(=O)c2ccc3nc4c(cc3c2)CCCS4)CC1 (single isomer, unassigned) [480] | 7.71 |  |
| COC1CCC(F)(CC(=O)c2ccc3nc4c(cc3c2)CCCS4)CC1 (single isomer, unassigned) [479] | 7.86 |  |
| COC1CCC(C)(CC(=O)c2ccc3nc4c(cc3c2)CCCS4)CC1 (single isomer, unassigned) | 7.84 |  |
| C[C@@](N)(C(=O)O)c1ccc(C(=O)O)cc1 |  | Hill coefficient [2, 4]: 0.96 ± 0.02; Ki [2, 4]: 165 µM; inhibition of [3H]Compound A binding (in words) ([3]; rat mGlu1a receptor CHO-dhfr− membranes): did not inhibit; Ki ([3]; read-out: Ki (nM), inhibition of [3H]Compound A-binding, 2.5 nM [3H]Compound A, 30 min at 4° C., mean ± SD of 3–4 experiments): > 1e+06 nM |
